Screens (PubChem)
Nrf2 block: blocks Nrf2 signaling | A549 ARE-Fluc reporter, luciferase luminescence, 18-24 h | Potency, µM (top dose mostly 46 µM), without a hit: at the highest dose activity change, negative = inhibition, hits mostly inhibitors | actives 2.1% (n = 360,000) | AID 504444; also: potency is read from the fitted curve at half-maximal effect; % is scaled to controls: 0 for no effect and ±100 for the full control effect; nearly all actives have a fitted effect of over 60% in size
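Reporter: ARE-Fluc in A549. Exposure: 18-24 h, 37 °C, 5% CO2, 5% FBS OPTI-MEM. Readouts: fluorescent cytotoxicity (CellTiter-Fluor), then luminescent Nrf2 signal after BugLite.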
Nrf2 activator: activates Nrf2 signaling. AREc32 ARE-luciferase reporter (MCF7-derived line), luminescence, 24 h. Potency, µM (doses to about 46.1 µM), inactives show top-dose activation, hits mostly activators. actives 0.31% (n = 410,000). AID 624171; also: potency is read from the fitted curve at half-maximal effect; % of control where 0% means no effect; nearly all actives have a fitted effect of over 65% in size
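Steps: seed AREc32_Fluc cells (1000/well, 5% FBS OPTI-MEM); incubate overnight at 37 deg C; add 23 nL compound; incubate 24 hr; add Steady-Glo; hold 30 min RT; read luminescence.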
A549 tox-1: counter-screen for Nrf2 inhibitors: cytotoxicity in A549 cells; A549 ARE-Fluc cells, CellTiter-Fluor viability, 18-24 h; Potency, µM (titrated, usually from 46 µM), without a hit: at the top dose activity change, negative = cytotoxicity, actives largely listed as inhibitors; actives 0.16% (n = 390,000); also: potency is read from the fitted curve at half-maximal effect; % is scaled to controls: 0 for no effect and ±100 for the full control effect
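Cytotoxicity counterscreen: CellTiter-Fluor fluorescence was measured in A549 ARE_Fluc cells after 18-24 h of compound exposure in a concentration series. The subsequent BugLite luminescent read reports ARE-luciferase activity.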
miR-21 FLuc: miR-21 reporter, rising signal | HeLa miR-21 FLuc reporter, luciferase, 48 h | Potency, µM (top dose mostly 38.3 µM), inactives show at the top dose reporter change, positive = more light | 340,000 tested, under 10 active | AID 2288; active = well fitted rising curve with a large enough effect; inconclusive = small, poorly fitted or top-dose-only effect; inactive = no such curve, though single readings can be large or run the other way;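 further: % of control where 0% means no effect; miR-21 action dims this reporter so a rising signal means less miR-21 action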
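HeLa cells endogenously expressing miR-21, stably carrying CMV-driven firefly luciferase with a downstream miR-21 binding site, 2000 cells/well. Titrations up to approximately 40 uM, 48 hours; luciferase luminescence read.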
Mito fusion yeast: inhibitors of mitochondrial division or activators of mitochondrial fusion; S. cerevisiae fusion-defective mutant growth rescue, CellTiterGlo 48 h; Potency, µM (titrated, usually from 46.1 µM), inactives show top-dose growth rescue (activation), usual class: activators; actives 0.23% (n = 320,000); AID 485298; also: potency is read from the fitted curve at half-maximal effect; % of control where 0% means no effect; nearly all actives have a fitted effect of over 45% in size
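Yeast fusion mutant, YPEG (non-fermentable carbon), compound, 48 h at 37C non-permissive; CellTiterGlo added, 10 min RT, luminescence read. Rescued growth = division inhibition.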
FLuc counter 3: firefly luciferase inhibition, Nrf2 hit validation | shares compounds with Nrf2 block | purified firefly luciferase, luminescence inhibition | Potency, µM (top dose mostly 57.5 µM), without a hit: top-dose activity change, negative = inhibition, usual class: inhibitors | actives 4% (n = 1,400); also: potency is read from the fitted curve at half-maximal effect; % is scaled to controls: 0 for no effect and ±100 for the full control effect; nearly all actives have a fitted effect of over 65% in size
A549 tox-2: counter-screen for Nrf2 inhibitors: cytotoxicity in A549 ARE cells; actives 2% (n = 1,400); Potency, µM (highest dose often 46.1 µM), for inactives: at the top dose activity change, negative = cytotoxicity, actives largely listed as inhibitors; shares compounds with Nrf2 block; A549 ARE-Fluc cells, cytotoxicity counterscreen;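 also: potency is read from the fitted curve at half-maximal effect; cells exposed to compounds for 18 to 24 hours; % is scaled to controls: 0 for no effect and ±100 for the full control effect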
Nrf2 ARE inh: Nrf2 inhibition confirmed, A549 ARE-luciferase. Potency, µM (top dose mostly 46.1 µM), for the others: at the top dose activity change, negative = inhibition, usual class: inhibitors. actives 74% (n = 1,400). AID 720524. A549 ARE-firefly luciferase reporter, luminescence. shares compounds with Nrf2 block; also: potency is read from the fitted curve at half-maximal effect; % is scaled to controls: 0 for no effect and ±100 for the full control effect; nearly all actives have a fitted effect of over 65% in size
The depositor's hits bear a star; ? = inconclusive; . = not tested or not shown; [ ] = another dose, or the depositor's remark. Hits are enriched below; roughly 2.3% of the tested compounds scored in any of these assays. Unless noted, calls follow the shape of the dose curve; as a rule, active = well fitted curve in the direction sought with a large enough effect; inconclusive = small, poorly fitted or top-dose-only effect, or another doubt; inactive = no such curve, though single readings can be large; an effect the other way counts as inactive or inconclusive.

Assay codes: A = Nrf2 block; B = Nrf2 activator; C = A549 tox-1; D = miR-21 FLuc; E = Mito fusion yeast; F = FLuc counter 3; G = A549 tox-2; H = Nrf2 ARE inh
(1) CCOc1ccc(S(=O)(=O)N2CCN(S(=O)(=O)c3ccc(C(C)=O)cc3)CC2)cc1
  A: 6.1% | B: -0.5% | C: 4.4% | D: 5.8% | E: 10.2% | F: . | G: . | H: .

(2) COc1cc(OC)c(NC(=O)c2cn(C3CCCC3)c(=O)c3c2c2ccccc2n3C)cc1Cl
  A: 8.9% | B: 1.1% | C: -2.3% | D: 1.8% | E: . | F: . | G: . | H: .

(3) COc1cc(S(=O)(=O)NCc2ccncc2)ccc1Br
  A: 3.26µM* | B: -0.7% | C: -15.5% | D: 13.9% | E: 0.4% | F: -2.1% | G: -1.8% | H: 3.66µM*

(4) Cc1ccc(S(=O)(=O)NCc2ccncc2)cc1C
  A: 2.31µM* | B: -0.7% | C: -6.5% | D: 12.5% | E: -0.5% | F: -1.8% | G: -1.3% | H: 2.06µM*

(5) COc1ccc(S(=O)(=O)NCc2cccnc2)cc1Br
  A: 7.31µM* | B: 0.1% | C: -6.6% | D: 14.2% | E: -1.9% | F: 2.6% | G: -2.5% | H: ?

(6) O=S(=O)(NCc1ccncc1)c1ccc(Br)s1
  A: 1.46µM* | B: -0.2% | C: -23.8% | D: 11.8% | E: 0.9% | F: -0.6% | G: -4.4% | H: 1.46µM*

(7) CNC(=O)c1cc(S(=O)(=O)NCc2ccncc2)ccc1OC
  A: ? | B: -0.1% | C: 4.7% | D: 0.2% | E: 2.5% | F: . | G: . | H: .

(8) COC(=O)CCNC(=O)N1CCN(c2nnc(C)c3c(C)n(-c4ccc(Cl)cc4)nc23)CC1
  A: -8.9% | B: -0.9% | C: -9.8% | D: 3.2% | E: . | F: . | G: . | H: .

(9) COc1cc(OC)c(OC)cc1CNC(=O)c1cccc(S(=O)(=O)N2CCc3ccccc3C2)c1
  A: 7.31µM* | B: -1.2% | C: -16.8% | D: . | E: 6.3% | F: 2.1% | G: -9.4% | H: 5.8µM*

(10) COc1ccc(CC(=O)Nc2cccc(S(=O)(=O)N3CCCC3)c2)cc1OC
  A: 4.61µM* | B: 3.3% | C: -20.9% | D: . | E: 2.9% | F: -0.3% | G: -13.3% | H: 7.31µM*

(11) O=C(Cn1c(NCCO)nc2ccccc21)Nc1cccc(S(=O)(=O)N2CCCC2)c1
  A: ? | B: -0.3% | C: -3.4% | D: . | E: . | F: . | G: . | H: .

(12) O=C(Cn1cnc2ccccc21)Nc1cccc(S(=O)(=O)N2CCCC2)c1
  A: 5.8µM* | B: -0.7% | C: -15.7% | D: . | E: -0.3% | F: -1.3% | G: -1.3% | H: 9.2µM*

(13) O=C(Cc1n[nH]c(=O)c2ccccc12)Nc1cccc(S(=O)(=O)N2CCCCCC2)c1
  A: 9.2µM* | B: 3.5% | C: -13.6% | D: . | E: -0.7% | F: -2.1% | G: -7.1% | H: 9.2µM*

(14) COC(=O)c1ccc(OCC2c3cc(OC)c(OC)cc3CCN2C(=O)c2ccccc2C)cc1 (stereo unspecified)
  A: . | B: 5.5% | C: -1.0% | D: 6.7% | E: . | F: . | G: . | H: .

(15) COc1ccc(CNC(=O)c2cccc(S(=O)(=O)N3CCCCC3)c2)cc1OC
  A: 5.17µM* | B: 0.0% | C: -18.8% | D: . | E: -3.9% | F: 3.0% | G: 0.5% | H: 5.8µM*

The final 2 compounds of the section above are carried over, then new ones follow:
Assay codes: A = Nrf2 block; B = Nrf2 activator; C = A549 tox-1; D = miR-21 FLuc; E = Mito fusion yeast; F = FLuc counter 3; G = A549 tox-2; H = Nrf2 ARE inh
(14) COC(=O)c1ccc(OCC2c3cc(OC)c(OC)cc3CCN2C(=O)c2ccccc2C)cc1 (stereo unspecified)
  A: . | B: 5.5% | C: -1.0% | D: 6.7% | E: . | F: . | G: . | H: .

(15) COc1ccc(CNC(=O)c2cccc(S(=O)(=O)N3CCCCC3)c2)cc1OC
  A: 5.17µM* | B: 0.0% | C: -18.8% | D: . | E: -3.9% | F: 3.0% | G: 0.5% | H: 5.8µM*

(16) COc1ccc(CCNC(=O)c2cccc(S(=O)(=O)N3CCCC3)c2)cc1OC
  A: -13.4% | B: 0.9% | C: -4.0% | D: . | E: 3.2% | F: . | G: . | H: .

(17) COCC1CCCCN1C(=O)c1cc(COc2ccc3ncccc3c2)on1 (stereo unspecified)
  A: ? | B: 0.2% | C: -6.6% | D: 19.9% | E: 15.9% | F: . | G: . | H: .

(18) Cc1nc(CN(C)C(=O)c2cc(COc3ccc4ncccc4c3)on2)cs1
  A: 2.91µM* | B: 0.0% | C: -14.6% | D: 13.8% | E: 5.0% | F: -16.8% | G: -5.5% | H: -41.9%

(19) CC(CCCC(C)(C)O)NC(=O)c1cc(COc2ccc3ncccc3c2)on1 (stereo unspecified)
  A: 5.17µM* | B: 2.7% | C: ? | D: 17.2% | E: 1.7% | F: -10.7% | G: -4.4% | H: 6.51µM*

(20) CCC1CCCCN1C(=O)c1cc(COc2ccc3ncccc3c2)on1 (stereo unspecified)
  A: 2.06µM* | B: 2.5% | C: ? | D: 17.0% | E: 9.2% | F: 0.0% | G: -6.9% | H: .

(21) CCOCCCNC(=O)C(c1ccc(C)cc1)N(Cc1ccc2c(c1)OCO2)C(=O)c1ccccc1O (stereo unspecified)
  A: 2.5%[9.27 µM] | B: 0.6% | C: -6.9% | D: 19.7% | E: . | F: . | G: . | H: .

(22) O=C(Nc1nc(-c2ccc(S(=O)(=O)N3CCOCC3)cc2)cs1)c1ccccc1
  A: 4.61µM* | B: 5.1% | C: -16.7% | D: ? | E: 1.0% | F: ? | G: 2.5% | H: .

(23) O=C(Nc1nc(-c2cc3ccccc3o2)cs1)c1ccc(S(=O)(=O)N2CCCC2)cc1
  A: 4.11µM* | B: -0.6% | C: -25.4% | D: -1.2% | E: 0.3% | F: -17.2% | G: -19.4% | H: 5.17µM*

(24) Cc1ccc(C(=O)Nc2nc(-c3ccccn3)cs2)cc1S(=O)(=O)N1CCOCC1
  A: 8.2µM* | B: 0.1% | C: ? | D: . | E: -1.9% | F: 10.7µM* | G: ? | H: 1.64µM*

(25) COc1ccc(N2CCN(c3ncnc4c3cnn4-c3ccc(F)cc3)CC2)cc1
  A: . | B: 4.6% | C: 2.9% | D: -1.3% | E: . | F: . | G: . | H: .

(26) CC(C)Cc1cc(C(=O)NCc2ccc(Cl)cc2)no1
  A: 4.7% | B: 0.6% | C: 0.1% | D: -27.8% | E: . | F: . | G: . | H: .

(27) Cc1cc(C)c(NC(=O)CSc2nc3ccccc3c3nc(CCn4cncc4C)nn23)c(C)c1
  A: . | B: 4.2% | C: ? | D: 1.9% | E: . | F: . | G: . | H: .

(28) O=C1CC(c2ccco2)Cc2[nH]c(=O)c(C(=O)Nc3ccccc3)cc21 (stereo unspecified)
  A: . | B: . | C: . | D: . | E: . | F: -17.2% | G: -9.5% | H: ?

(29) COc1ccc(CNC(=O)Cn2c(=O)nc(-c3ccccc3)c3ccccc32)cc1OC
  A: . | B: -1.1% | C: -11.7% | D: 0.2% | E: . | F: . | G: . | H: .

(30) Cc1cc(/C=C(\C#N)C(=O)Nc2ccccc2)c(C)n1-c1ccc(F)cc1
  A: 1.4% | B: 0.1% | C: -1.5% | D: -17.7% | E: . | F: . | G: . | H: .

Continuation.
Assay codes: A = Nrf2 block; B = Nrf2 activator; C = A549 tox-1; D = miR-21 FLuc; E = Mito fusion yeast; F = FLuc counter 3; G = A549 tox-2; H = Nrf2 ARE inh
(31) Cc1cc(C(=O)O)ccc1-n1c(C)cc(/C=C(/C#N)C(=O)Nc2ccccc2)c1C
  A: 5.8µM* | B: -0.4% | C: 1.0% | D: -1.3% | E: 0.8% | F: -15.8% | G: -7.3% | H: ?

(32) Cn1c(=O)c2c(SCC(=O)NCc3ccco3)nc(-c3cccc(F)c3)nc2n(C)c1=O
  A: . | B: 1.2% | C: -6.6% | D: 0.1% | E: . | F: . | G: . | H: .

(33) COc1ccc(N2CCN(c3ncnc4onc(-c5ccc(F)cc5)c34)CC2)cc1
  A: -3.7% | B: 0.8% | C: 3.8% | D: 10.0% | E: . | F: . | G: . | H: .

(34) COc1ccc(N2CCN(c3ncnc4onc(C)c34)CC2)cc1
  A: 9.2µM* | B: -1.4% | C: 5.2% | D: 16.1% | E: . | F: 3.3% | G: -2.2% | H: 7.31µM*

(35) CCN1CCN(C(=S)c2ccc(-c3ccccc3)cc2)CC1
  A: 5.17µM* | B: -1.7% | C: -1.0% | D: 5.8% | E: -0.6% | F: ? | G: -1.5% | H: 6.51µM*

(36) Fc1ccccc1CNc1ncnc2sccc12
  A: 4.11µM* | B: 3.4% | C: -22.4% | D: 22.7% | E: 25.1% | F: 1.1% | G: -5.1% | H: 5.17µM*

(37) COc1ccc(CCNc2ncnc3sccc23)cc1OC
  A: 0.581µM* | B: 0.7% | C: -6.2% | D: 26.3% | E: -2.5% | F: -19.7% | G: 1.3% | H: 0.517µM*

(38) COc1ccccc1CNc1ncnc2sccc12
  A: 3.26µM* | B: 5.5% | C: -2.3% | D: 29.6% | E: 18.0% | F: -13.3% | G: -8.8% | H: 4.11µM*

(39) COc1ccc(Nc2ncnc3sccc23)cc1OC
  A: ? | B: 0.4% | C: 3.1% | D: -19.8% | E: 1.4% | F: . | G: . | H: .
